Reference: ChEMBL document CHEMBL3994667, “Small Molecule Lysyl Oxidase-like 2 (LOXL2) Inhibitors: The Identification of an Inhibitor Selective for LOXL2 over LOX” (ACS Med Chem Lett, 2017)

Experiments:
Assay type in all cases: cell-based
[1] = biological target: T1, Lysyl oxidase homolog 2 (Homo sapiens) (UniProt Q9Y4K0); assay: (§1) Irreversible inhibition of full length recombinant human LOXL2 expressed in CHO cells assessed as reduction in H2O2 production at 1000 times IC50 using DAP as substrate preincubated for 2 hrs followed by compound washout and second incubation for 2 hrs before substrate addition measured every 2 mins for 40 mins by Amplex red dye based fluorescence assay relative to control
T1 sequence (whole entry): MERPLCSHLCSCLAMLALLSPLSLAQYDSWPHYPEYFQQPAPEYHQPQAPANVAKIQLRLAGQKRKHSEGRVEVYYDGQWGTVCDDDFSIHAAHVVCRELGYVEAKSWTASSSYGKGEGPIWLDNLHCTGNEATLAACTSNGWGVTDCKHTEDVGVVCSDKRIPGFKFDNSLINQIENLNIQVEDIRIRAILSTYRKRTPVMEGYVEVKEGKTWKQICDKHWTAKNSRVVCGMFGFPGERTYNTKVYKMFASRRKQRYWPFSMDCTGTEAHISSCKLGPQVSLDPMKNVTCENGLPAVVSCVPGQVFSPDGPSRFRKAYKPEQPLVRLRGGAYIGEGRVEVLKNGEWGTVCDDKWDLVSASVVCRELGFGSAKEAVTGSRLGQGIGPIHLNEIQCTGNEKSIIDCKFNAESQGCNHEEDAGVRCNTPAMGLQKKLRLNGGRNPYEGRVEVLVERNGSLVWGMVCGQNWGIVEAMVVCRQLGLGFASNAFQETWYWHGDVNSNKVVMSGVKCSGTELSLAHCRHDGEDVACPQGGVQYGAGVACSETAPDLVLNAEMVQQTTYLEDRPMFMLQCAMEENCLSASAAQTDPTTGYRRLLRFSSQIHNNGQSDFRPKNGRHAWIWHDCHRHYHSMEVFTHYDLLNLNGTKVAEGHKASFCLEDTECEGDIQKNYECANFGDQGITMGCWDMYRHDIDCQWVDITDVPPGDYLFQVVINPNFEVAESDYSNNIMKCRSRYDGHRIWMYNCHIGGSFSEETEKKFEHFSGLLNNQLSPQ

[2] = biological target: T1, Lysyl oxidase homolog 2 (Homo sapiens); assay: as §1, with “incubation up to 24” for “incubation for 2”, “assay” for “assay relative to control”
[3] = biological target: T1, Lysyl oxidase homolog 2 (Homo sapiens); assay: Inhibition of full length recombinant human LOXL2 expressed in CHO cells assessed as reduction in H2O2 production using DAP as substrate measured every 2 minutes for 50 minutes by Amplex red dye based fluorescence assay
Procedure, shortened: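 Enzyme source: serum-free concentrated conditioned media from CHO cells stably expressing human LOXL2. H2O2 from oxidative deamination of 1,5-diaminopentane is detected by Amplex Red. Inhibitor is preincubated with enzyme for 15 min or 2 h; 2 h is the standard screening time. IC50 is the geometric mean x/÷ geometric standard deviation, with N-values reported.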

[4] = biological target: T1, Lysyl oxidase homolog 2 (Homo sapiens); assay: Inhibition of full length recombinant human LOXL2 expressed in CHO cells assessed as reduction in H2O2 production using DAP as substrate preincubated for 4 hrs followed by substrate addition measured every 2 minutes for 50 minutes by Amplex red dye based fluorescence assay
Procedure, shortened: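 Human LOXL2 comes from serum-free concentrated conditioned media of stably transfected CHO cells. Inhibitor is pretreated with enzyme for 4 h. DAP oxidative deamination is monitored as H2O2 by Amplex Red.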

inhibition [1] [%]	inhibition [2]	SMILES	inhibition [3]	inhibition [4]
35	Active	NCc1ccnc(Cl)c1	–	–
–	–	N#CCCN	Tde	Active

Activity calls are given as the source filed them. The calls are words filed in the database; no cut-off is given here.
